Results reported in article doi:10.1101/2021.12.23.473878.

Target: TACAN lacking the entire N-terminus (K135X-D343) (human) (UniProt Q9BXJ8)
Experiment: cross-linking

- stoichiometry N: 2
Substance: TACAN lacking the entire N-terminus (K135X-D343) (from UniProt Q9BXJ8 135-343) (domain or fragment)
